Experiment: Solubility of fenofibric acid salts in water at 25° C.
Format: physicochemical
Experimental: Solubility Determination: Solubility values of fenofibric acid salts in water were determined at 25° C. The salts were weighed into glass vials and water was added. The suspensions were rotated from end to end for about 2 days in a 25° C. water bath. The pH of the suspensions was measured. The residual solid was then removed via filtration through a 0.45 μm PTFE membrane filter. The resulting saturated solution was diluted appropriately into the HPLC mobile phase, and analyzed by the HPLC assay described below (Table 3). The powder x-ray diffraction pattern of the collected residual solid was recorded at the end of experiment.

Solubility: 360 µg/mL
Substance: Calcium

Source: patent US20080152714A1, “Pharmaceutical Formulations” (priority 2005, published 2008)
